1 compound from patent US20250136607A1 (REGOR PHARMACEUTICALS, INC., priority 2021, published 2025) can be followed below.

Amino acid sequences for entries named in this document (tags omitted).
UniProt Q9UM07, whole entry: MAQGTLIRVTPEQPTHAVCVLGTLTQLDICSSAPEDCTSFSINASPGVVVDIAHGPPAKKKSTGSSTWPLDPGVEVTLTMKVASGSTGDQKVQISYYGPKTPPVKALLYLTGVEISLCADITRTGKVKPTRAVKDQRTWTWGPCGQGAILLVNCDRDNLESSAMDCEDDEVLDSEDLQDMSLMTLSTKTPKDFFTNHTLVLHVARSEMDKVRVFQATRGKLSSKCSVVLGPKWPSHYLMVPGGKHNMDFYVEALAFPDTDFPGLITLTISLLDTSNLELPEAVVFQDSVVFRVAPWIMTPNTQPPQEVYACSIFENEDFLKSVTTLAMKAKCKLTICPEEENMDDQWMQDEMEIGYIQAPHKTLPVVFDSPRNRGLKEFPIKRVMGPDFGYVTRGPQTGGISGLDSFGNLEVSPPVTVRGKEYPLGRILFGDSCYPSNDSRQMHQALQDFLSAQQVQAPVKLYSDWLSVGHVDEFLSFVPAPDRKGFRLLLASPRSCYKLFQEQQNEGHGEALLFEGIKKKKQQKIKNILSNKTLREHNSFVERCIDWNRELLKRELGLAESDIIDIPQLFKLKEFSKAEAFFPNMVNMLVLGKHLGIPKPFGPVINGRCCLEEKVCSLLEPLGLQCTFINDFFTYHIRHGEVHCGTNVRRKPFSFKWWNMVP

The structures appear in SMILES notation.

The experiment deals with Protein arginine deiminase 4 (PAD4) (Homo sapiens, UniProt Q9UM07). The experiment can be described thus: PAD4 ammonia release assay. The following applies: read-out: Average IC50 Abs, BAEE substrate, 60 min at RT. As for the experimental part: 1) Compound preparation: The compounds were diluted to 80× final concentrations. 2) The compounds were transferred to a 384-well assay plate by Tecan. DMSO: 1.25%. 3) Preparation of 1×Assay buffer: 100 mM HEPES, PH=8.0, 2 mM CaCl2, 50 mM NaCl, 0.1 mM TCEP, 0.6 mg/ml BSA. 4) 2× enzyme working solution (PAD4:20 nM) was prepared with assay buffer, and 10 μL of the obtained working solution were added to the 384-well assay plates. 5) The plate was centrifuged at 1000 rpm for 1 min. 6) After the centrifuge, the plate was incubated at RT for 15 min. 7) 2×BAEE substrate mix (600 μM) was prepared with assay buffer and 10 μL of the obtained substrate mix were added to each well. 8) The plate was centrifuged at 1000 rpm for 1 min and then incubated at RT for 60 min. 9) 1.5× detection mix (DTT:4 mM, OPA:3 mM, EDTA: 30 mM) was prepared, and 10 μL of the mix were added to the plate. 10) The plate was centrifuged at 1000 rpm for 1 min and then incubated at RT for 120 min. 11) The 384-well plates were placed into the Envision (PerkinElmer) and the assay data were collected.
The percent (%) inhibition at each concentration of compound was calculated based on and relative to the signal in the HPE (50 μM ref. compound) and ZPE (1.25% DMSO) wells included within each assay plate. […] The endpoint value (IC50) for the reference compound was evaluated in each experiment as a quality control measure. […]

For `COc1cc(C(=O)N2C[C@H](N)C[C@@H](F)C2)cc2nc(-c3cc4cccc5c4n3CCN5CCC(C)(C)O)n(Cc3cnn(C)c3)c12`, the IC50 fell in the range of 100 to 500 nM.
